Test results published in patent publication US8901087B2, “Selective glycosidase inhibitors and uses thereof” (priority 2010, dated 2014).

The chains behind the UniProt entries cited, without tags or fusion partners. Where a name states a change or a piece, a line headed by the entry shows the natural chain unless it says otherwise.
UniProt O60502: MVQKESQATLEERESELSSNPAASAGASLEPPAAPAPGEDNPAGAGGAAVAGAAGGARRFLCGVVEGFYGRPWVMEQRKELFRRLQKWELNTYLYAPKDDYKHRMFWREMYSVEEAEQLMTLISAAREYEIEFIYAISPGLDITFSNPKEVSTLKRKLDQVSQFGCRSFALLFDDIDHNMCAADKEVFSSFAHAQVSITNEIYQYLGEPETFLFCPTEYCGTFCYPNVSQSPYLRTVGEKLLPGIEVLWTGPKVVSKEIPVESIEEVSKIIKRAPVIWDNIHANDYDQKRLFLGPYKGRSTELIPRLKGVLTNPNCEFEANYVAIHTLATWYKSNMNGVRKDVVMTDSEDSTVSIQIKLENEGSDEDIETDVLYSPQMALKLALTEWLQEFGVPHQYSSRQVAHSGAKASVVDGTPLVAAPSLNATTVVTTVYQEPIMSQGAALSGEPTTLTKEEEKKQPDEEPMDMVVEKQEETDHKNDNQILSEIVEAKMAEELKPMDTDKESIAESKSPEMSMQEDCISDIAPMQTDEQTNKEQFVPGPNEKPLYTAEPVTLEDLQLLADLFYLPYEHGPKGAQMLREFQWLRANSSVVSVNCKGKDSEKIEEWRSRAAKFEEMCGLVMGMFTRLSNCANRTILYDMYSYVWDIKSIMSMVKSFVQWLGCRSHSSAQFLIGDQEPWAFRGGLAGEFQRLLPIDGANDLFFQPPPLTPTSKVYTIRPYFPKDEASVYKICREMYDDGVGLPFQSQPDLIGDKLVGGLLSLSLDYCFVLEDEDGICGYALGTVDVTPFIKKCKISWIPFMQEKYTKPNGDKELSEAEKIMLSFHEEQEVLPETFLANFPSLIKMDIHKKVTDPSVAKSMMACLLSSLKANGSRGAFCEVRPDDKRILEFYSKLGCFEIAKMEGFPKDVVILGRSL

Target: human O-GlcNAcase (Homo sapiens (Human), UniProt O60502)
Experiment: Fluorescence-based assay for determination of KI values for inhibition of O-GlcNAcase activity
Type: biochemical
Description: Assay for Determination of KI Values for Inhibition of O-GlcNAcase Activity
Experimental Procedure for Kinetic Analyses
Enzymatic reactions are carried out in a reaction containing 50 mM NaH2PO4, 100 mM NaCl and 0.1% BSA (pH 7.0) using 2 mM 4-Methylumbelliferyl N-acetyl-β-D-glucosaminide dihydrate (Sigma M2133) dissolved in ddH2O, as a substrate. The amount of purified human O-GlcNAcase enzyme used in the reaction is 0.7 nM. Test compound of varying concentrations is added to the enzyme prior to initiation of the reaction. The reaction is performed at room temperature in a 96-well plate and is initiated with the addition of substrate. […] The slope of product production is determined for each concentration of compound tested and plotted, using standard curve fitting algorithms for sigmoidal dose response curves. The values for a four parameter logistic curve fit of the data are determined.

C=CC[C@H](O)[C@H]1O[C@@H]2SC(NCC)=N[C@@H]2[C@@H](O)[C@@H]1O (single isomer, unassigned) [Example 40]
Ki: 7.95 nM
